{"sequences": {"note": "Chains of the proteins cited; added tags and fusions are not shown. Lines headed by an entry give the natural chain unless they say otherwise; changes in a name come on top.", "UniProt Q12809": "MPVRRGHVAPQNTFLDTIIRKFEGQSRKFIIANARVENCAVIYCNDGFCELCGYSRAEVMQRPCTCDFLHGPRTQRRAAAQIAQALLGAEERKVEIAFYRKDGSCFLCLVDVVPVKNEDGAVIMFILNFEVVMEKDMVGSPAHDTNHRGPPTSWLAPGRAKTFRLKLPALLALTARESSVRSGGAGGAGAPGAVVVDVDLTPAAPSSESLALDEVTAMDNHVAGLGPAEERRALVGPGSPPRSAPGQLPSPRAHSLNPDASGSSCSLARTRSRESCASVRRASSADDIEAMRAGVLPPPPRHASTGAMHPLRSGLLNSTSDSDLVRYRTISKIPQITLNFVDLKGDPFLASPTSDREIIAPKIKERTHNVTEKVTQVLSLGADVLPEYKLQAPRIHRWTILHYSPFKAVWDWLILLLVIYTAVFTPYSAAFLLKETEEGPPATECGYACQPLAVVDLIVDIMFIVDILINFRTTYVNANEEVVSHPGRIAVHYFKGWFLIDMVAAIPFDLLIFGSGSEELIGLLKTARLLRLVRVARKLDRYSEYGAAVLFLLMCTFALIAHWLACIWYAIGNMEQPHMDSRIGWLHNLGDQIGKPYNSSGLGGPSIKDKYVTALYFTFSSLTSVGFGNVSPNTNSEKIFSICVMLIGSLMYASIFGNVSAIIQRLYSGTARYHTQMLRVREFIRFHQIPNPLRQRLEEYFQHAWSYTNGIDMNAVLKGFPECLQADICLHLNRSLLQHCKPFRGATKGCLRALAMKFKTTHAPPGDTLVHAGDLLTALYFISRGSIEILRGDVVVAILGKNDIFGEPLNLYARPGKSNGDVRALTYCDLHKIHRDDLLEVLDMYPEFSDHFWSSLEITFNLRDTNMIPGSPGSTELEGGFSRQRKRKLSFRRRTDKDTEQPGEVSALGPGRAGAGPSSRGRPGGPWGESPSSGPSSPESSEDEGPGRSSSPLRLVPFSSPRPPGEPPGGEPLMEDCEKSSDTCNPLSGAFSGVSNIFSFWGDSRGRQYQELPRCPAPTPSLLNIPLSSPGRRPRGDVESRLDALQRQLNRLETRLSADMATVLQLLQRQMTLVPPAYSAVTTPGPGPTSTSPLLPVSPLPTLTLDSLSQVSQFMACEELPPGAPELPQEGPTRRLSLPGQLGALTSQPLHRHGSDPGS"}, "source": "patent US7297489B2", "about": "“Mutations in and genomic structure of HERG—a long QT syndrome gene” (University of Utah Research Foundation, priority 1998, dated 2007)", "key": {"IKr of cardiac myocytes": {"system": "IKr of cardiac myocytes", "settings": "nM concentrations; cited from earlier work"}, "HERG": {"target": "HERG (Homo sapiens, UniProt Q12809)", "assay": "HERG current in Xenopus oocytes injected with HERG cRNA, two-microelectrode voltage clamp", "settings": "1 μM, oocytes incubated up to 4 hours"}}, "note": "Entries after “also recorded” stand apart in the source; their conditions may differ.", "data": [{"smiles": "CS(=O)(=O)Nc1ccc2c(c1)[C@H](O)CC1(CCN([C@@H]3CCc4cc(C#N)ccc4C3)CC1)O2", "note": "[MK-499]", "values": [{"measurement": "block of IKr", "setting": "IKr of cardiac myocytes", "result": "blocked"}, {"measurement": "block of HERG current by methanesulfonanilides", "setting": "HERG", "result": "neither E-4031 nor MK-499 at a concentration of 1 μM blocked HERG current; also recorded: not blocked; also recorded: (1 μM - no effect)"}]}]}
